Assay [1] has as its target SHANK3 SPN-ARR (residues 1-348) (rat). The experiment in a line: ITC. For orientation: ITC needs no label: the signal is the heat of the interaction.
The target in the next assay is SHANK1 SPN (rat) (UniProt Q9WV48). Put plainly: ITC.

By UniProt entry, the sequences of proteins in these tests, tags left out. Where a name states a change or a piece, a line headed by the entry shows the natural chain unless it says otherwise.
UniProt Q9WV48: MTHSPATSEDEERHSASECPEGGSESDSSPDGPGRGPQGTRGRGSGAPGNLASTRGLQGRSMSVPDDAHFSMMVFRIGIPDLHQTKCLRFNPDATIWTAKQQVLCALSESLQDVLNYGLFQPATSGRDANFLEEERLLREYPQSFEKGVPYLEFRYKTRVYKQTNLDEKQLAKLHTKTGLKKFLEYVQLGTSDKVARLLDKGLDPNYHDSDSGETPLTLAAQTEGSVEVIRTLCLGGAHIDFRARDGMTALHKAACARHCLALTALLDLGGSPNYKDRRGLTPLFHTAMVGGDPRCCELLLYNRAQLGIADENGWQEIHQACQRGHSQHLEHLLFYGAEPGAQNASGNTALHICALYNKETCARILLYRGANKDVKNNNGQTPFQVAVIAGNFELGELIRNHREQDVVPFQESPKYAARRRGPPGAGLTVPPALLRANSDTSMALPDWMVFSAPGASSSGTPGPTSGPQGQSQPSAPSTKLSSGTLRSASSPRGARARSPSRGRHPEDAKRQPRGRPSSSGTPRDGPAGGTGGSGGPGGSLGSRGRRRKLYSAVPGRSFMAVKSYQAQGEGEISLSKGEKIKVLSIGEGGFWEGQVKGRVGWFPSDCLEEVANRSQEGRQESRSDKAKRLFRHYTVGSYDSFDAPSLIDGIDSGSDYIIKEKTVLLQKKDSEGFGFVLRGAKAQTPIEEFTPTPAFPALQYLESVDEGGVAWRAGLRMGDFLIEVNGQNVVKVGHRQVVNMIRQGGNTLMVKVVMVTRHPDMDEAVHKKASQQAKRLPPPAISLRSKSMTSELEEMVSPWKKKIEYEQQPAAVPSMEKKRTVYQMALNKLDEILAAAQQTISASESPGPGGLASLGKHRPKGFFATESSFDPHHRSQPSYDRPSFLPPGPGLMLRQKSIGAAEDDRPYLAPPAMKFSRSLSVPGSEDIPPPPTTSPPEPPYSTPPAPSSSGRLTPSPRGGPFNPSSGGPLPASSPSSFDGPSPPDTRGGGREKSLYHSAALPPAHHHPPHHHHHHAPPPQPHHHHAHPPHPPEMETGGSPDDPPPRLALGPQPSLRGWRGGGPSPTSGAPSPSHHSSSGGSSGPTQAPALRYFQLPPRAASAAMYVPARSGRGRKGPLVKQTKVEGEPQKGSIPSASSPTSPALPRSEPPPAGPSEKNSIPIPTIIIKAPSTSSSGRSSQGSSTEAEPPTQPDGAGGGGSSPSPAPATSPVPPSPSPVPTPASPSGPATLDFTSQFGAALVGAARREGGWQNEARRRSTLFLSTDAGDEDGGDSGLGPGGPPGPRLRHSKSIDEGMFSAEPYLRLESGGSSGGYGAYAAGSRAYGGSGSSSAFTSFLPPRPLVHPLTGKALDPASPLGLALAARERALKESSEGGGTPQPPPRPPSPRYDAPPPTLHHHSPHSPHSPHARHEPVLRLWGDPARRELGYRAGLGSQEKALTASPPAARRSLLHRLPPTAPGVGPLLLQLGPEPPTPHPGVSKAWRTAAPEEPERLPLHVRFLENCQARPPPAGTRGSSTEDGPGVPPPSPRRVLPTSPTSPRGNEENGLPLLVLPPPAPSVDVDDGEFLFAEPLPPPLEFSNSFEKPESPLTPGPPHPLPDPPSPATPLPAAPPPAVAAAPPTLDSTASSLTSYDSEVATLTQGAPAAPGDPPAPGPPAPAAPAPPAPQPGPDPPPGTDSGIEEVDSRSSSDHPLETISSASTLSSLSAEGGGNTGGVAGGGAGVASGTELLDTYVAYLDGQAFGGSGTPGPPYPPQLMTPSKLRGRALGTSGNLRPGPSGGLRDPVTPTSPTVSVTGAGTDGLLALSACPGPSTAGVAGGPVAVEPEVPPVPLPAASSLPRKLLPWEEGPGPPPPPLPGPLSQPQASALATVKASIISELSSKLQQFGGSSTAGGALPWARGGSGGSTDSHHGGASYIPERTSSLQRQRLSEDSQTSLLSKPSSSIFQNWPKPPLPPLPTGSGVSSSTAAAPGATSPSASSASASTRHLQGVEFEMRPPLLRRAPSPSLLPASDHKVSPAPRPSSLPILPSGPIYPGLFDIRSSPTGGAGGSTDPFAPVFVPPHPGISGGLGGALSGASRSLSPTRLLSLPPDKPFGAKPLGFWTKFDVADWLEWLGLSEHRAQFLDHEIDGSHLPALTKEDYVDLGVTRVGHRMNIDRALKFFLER

A word on the pKd: it is −log10 of the Kd, conventionally taken in molar units. Low values mean a large Kd, high ones a small Kd.

pKd: −log10 of the molar value.

On to “Human H-Ras (recombinant) (from UniProt P01112 1-189) (natural protein)”, for which the pKd in assay [1] was 5.48; with SHANK1 SPN (rat), 5.23.

(Values after article PMC5386136.)
